The source of these data is ChEMBL document CHEMBL1126296, “Orally active aldose reductase inhibitors: indazoleacetic, oxopyridazineacetic, and oxopyridopyridazineacetic acid derivatives” (J Med Chem, 1992).

The test concerns the target Aldo-keto reductase family 1 member B1 (Homo sapiens, UniProt P15121). Description: Inhibitory activity against aldose reductase isolated from human placenta.

For orientation: IC50 means the concentration at which inhibition is half-maximal. A higher IC50 goes with lower potency.

For the compound `O=C(O)Cc1nn(Cc2nc3cc(C(F)(F)F)ccc3s2)c(=O)c2ccccc12` [ZOPOLRESTAT], the IC50 was 4.8 nM.
